Reference: patent publication US6596719B1 (Actelio Pharmaceuticals Ltd., priority 1999, dated 2003)

Chains of the proteins cited; added tags and fusions are not shown. Residues count along the entry.
UniProt P25101, 21-427: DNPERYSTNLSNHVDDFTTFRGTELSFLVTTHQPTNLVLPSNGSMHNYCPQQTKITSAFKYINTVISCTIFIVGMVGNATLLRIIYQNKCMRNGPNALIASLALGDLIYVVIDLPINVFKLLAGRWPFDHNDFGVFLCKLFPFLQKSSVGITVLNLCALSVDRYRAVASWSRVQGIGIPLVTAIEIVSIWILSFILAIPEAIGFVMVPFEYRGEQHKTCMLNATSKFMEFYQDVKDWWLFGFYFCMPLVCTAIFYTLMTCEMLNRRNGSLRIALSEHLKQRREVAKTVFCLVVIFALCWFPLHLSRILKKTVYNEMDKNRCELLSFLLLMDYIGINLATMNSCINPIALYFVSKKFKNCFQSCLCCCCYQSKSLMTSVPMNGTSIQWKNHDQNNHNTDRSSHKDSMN

Target: T1, human recombinant ETA receptors (Homo sapiens, UniProt P25101)
T1 construct: expressed in transfected cells; host or cells: CHO cells (microsomal membranes)
Test: Inhibition of endothelin binding to membranes from CHO cells carrying human ET receptors (ETA)
Conditions: membranes of CHO cells expressing human recombinant ETA receptors, 8 pM [125I]ET-1, 2 h at 20° C.

IC50: 724 nM
SMILES: COc1ccccc1Oc1c(NS(=O)(=O)c2ccc(C)cn2)nc(N2CCOCC2)nc1OCCNS(=O)(=O)c1cccs1 [Example 58, 5-methyl-N-[6-(2-(thiophene-2-sulfonylamino)-ethoxy)-5-(o-methoxyphenoxy)-2-(N-morpholino)-4-pyrimidinyl]-2-pyridine sulfonamide]
